# scFv variants of Ab-14 (light chain) against a SARS-CoV-2 spike peptide

All variants were tested on one target, the spike HR2 peptide PDVDLGDISGINAS (SARS-CoV-2).

The variants keep the heavy chain, the linker and the frameworks of Ab-14 (scFv order VH, the linker GGGGSGGGGSGGGGS, VL).
VH: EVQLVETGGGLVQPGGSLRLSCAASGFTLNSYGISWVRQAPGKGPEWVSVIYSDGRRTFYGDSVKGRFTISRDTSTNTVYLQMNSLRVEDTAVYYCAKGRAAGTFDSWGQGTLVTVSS
VL: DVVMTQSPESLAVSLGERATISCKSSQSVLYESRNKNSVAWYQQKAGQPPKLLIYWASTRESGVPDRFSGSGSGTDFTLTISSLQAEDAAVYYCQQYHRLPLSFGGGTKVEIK

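The library (AAYL50) carries one to three amino acid substitutions per variant, with no insertions or deletions. In AlphaSeq, yeast of one mating type display the scFv and yeast of the other type display the target. Binding brings cells together so that they mate, and sequencing counts the barcode pairs among the diploids. Scores were corrected for input abundance and mapped to Kd with protein pairs of known affinity run in the same pool. Each pool was mated in three replicate cultures.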

The parent's light chain CDRs are KSSQSVLYESRNKNSVA, WASTRES, QQYHRLPLS; each variant's own CDRs replace them letter for letter. The read-out is the apparent dissociation constant on a log10 scale (nM): the lower, the stronger. A mean of the replicates is given; it leaves out those without a signal. An entry "no signal" has no value in the source: the pair was not observed among the diploids in any replicate. This suggests poor binding but is not conclusive. Parent in this assay: reference entry 0.65, copy in this library 1.68.

CDR-L1 | CDR-L2 | CDR-L3 | mean log10 Kd (nM) | detected
KSSQSVLYEIRNQNSVA | WAWTRES | QQYHRLPLS | no signal | 0/3
KSSVSVLYFSRNKSSVA | WASTRES | QQYHRLPLS | 3.82 | 3/3
KSSQSVQYESRNHNSVA | PASTRES | QQYHRLPLS | no signal | 0/3
KSSQSVLYESRNKNSVA | WSSTREW | QWYHRLPLS | 4.80 | 3/3
KSSQSVLYESRNKVSVA | WAFTCES | QQYHRLPLS | 4.52 | 3/3
KSSQSVLYESRNMNSVA | WASERES | QQYHRLPTS | 3.08 | 1/3
KSSQSVLYESRNKKSVA | EASTRES | QQTHRLPLS | 0.89 | 3/3
KSSQSVLYEAMNKNSVA | WASTRES | QQYHRLPLS | no signal | 0/3
KSSQSVLYESRNKNSVA | WASTHES | QVYHRLSLS | 5.51 | 1/3
KSSQSVLYELRQKNSVA | WASNRES | QQYHRLPLS | 2.07 | 3/3
KSSQSVRDESRNKNSVA | WAFTRES | QQYHRLPLS | 2.95 | 3/3
KFSQSVLYESRNTNSVA | WASTRES | CQYHRLPLS | 2.76 | 3/3
KSSQSVLYESRKKNSVA | WASTRES | QQYHRGPHS | 1.31 | 3/3
KSSQFVTYESRNKNSVA | WASTRES | QQYHRLPLS | 1.73 | 3/3
KSSQSVLYESRNKNSVA | AAAMRES | QQYHRLPLS | 0.45 | 3/3
KSSQGVLYESRNKNSVA | WASTRES | QQAMRLPLS | 2.14 | 3/3
KSSQSVLYESRNKNQVA | WASTRES | QRYHRLPLS | no signal | 0/3
KSSQSVLYESRNKNSRA | WASTRES | QQYCRLPLS | 4.42 | 2/3
KSSQSFLYESYNKNSVA | WASTMES | QQYHRLPLS | 2.71 | 1/3
KSSQSVLYASRNKNQVA | WAETRES | QQYHRLPLS | no signal | 0/3
KSSQSVLYESTNKNSVA | WASTRES | QQYHRLKLS | 4.85 | 2/3
KSSQSVLYESRNKNSVA | WYWTREL | QQYHRLPLS | no signal | 0/3
KSSQSVLYESRNKNSPA | WASTRES | QQSHRNPLS | 4.28 | 2/3
KDSQSVLYDSRNKNSVA | WASTRES | QQYHRLPLF | 2.19 | 3/3
MRSQSVLYESRNKNSIA | WASTRES | QQYHRLPLS | 2.59 | 3/3
MSSQSNLYESRNKNSVA | WASTRES | QQLHRLPLS | 3.15 | 3/3
KSSQSVVYESRNKNAVA | WASTRES | QQYHRLPCS | no signal | 0/3
KSSRSVLYESRNKNSVQ | WASTREV | QQYHRLPLS | no signal | 0/3
KSSQSVLYESRNKNSVA | WFSTREW | QQYHRLPLS | 2.85 | 1/3
KSSQNVLHESRNKNSVA | WASTRES | QQYHKLPLS | 1.08 | 3/3
KSSQSVLYESANKNSVA | CASKRES | QQYHRLPLS | 1.69 | 3/3
KSSQSNLYESRNDNSVA | WASTRES | QQYHRLPLV | 1.03 | 3/3
KSSQSVLYESRNKNSLA | WASTRES | QVYHRLPLV | no signal | 0/3
KSSQSVLYGSRNKGSVA | NASTRES | QQYHRLPLS | 0.87 | 3/3
ISSQSVLYESRNKNSVA | WASERAS | QQYHRLPLS | 1.79 | 3/3
ESSQEVLSESRNKNSVA | WASTRES | QQYHRLPLS | 0.90 | 3/3
KSSQSVLYESRNKNSVA | WASTRES | KQYHRLWWS | no signal | 0/3
KDSQSVLYESRNKNSYA | WAETRES | QQYHRLPLS | 2.29 | 3/3
KSVQIVLYESRNKNSVA | WASTRES | QQYWRLPLS | 3.48 | 1/3
KSSQSVLKESRNKNSRA | WASTNES | QQYHRLPLS | no signal | 0/3
KSSQSVLYESRNGNSVA | WASKWES | QQYHRLPLS | 3.43 | 1/3
KSSQSVLYKSRNKNSVA | WASTRES | QQPHRLPLS | 2.09 | 3/3
KSSQSVLYESRNKNSVA | FASTRES | QAYHGLPLS | 4.42 | 2/3
KSSQSVLSPSRNDNSVA | WASTRES | QQYHRLPLS | 0.20 | 3/3
DSSQSVLYESRNKNSVA | QASTRES | QQYHRKPLS | 3.70 | 3/3
KSSQSVMYESRNKNDHA | WASTRES | QQYHRLPLS | 4.25 | 1/3
KSSQSSLYESRNKNAVA | WASTRES | QQYHRLPNS | no signal | 0/3
KSSQDVLAESRNKNSVA | WASSRES | QQYHRLPLS | 1.10 | 3/3
KSSQSVLHESRNKNSAA | WVSTRES | QQYHRLPLS | 5.01 | 2/3
KVDQSVLYESRNKNSVA | WASTRES | QQYWRLPLS | no signal | 0/3
KSSQSLLIESRNKNSVA | WASDRES | QQYHRLPLS | 0.80 | 3/3
KWSQSVLYESRNKNSVA | WASTRES | GQYHRLPKS | no signal | 0/3
KSSQSVLYESRNKNSVG | WASIRES | QQYHRLPPS | 5.05 | 3/3
KSSQSVLYESRNKDSVA | WASTRES | QQNHRLPLS | 1.71 | 3/3
KSSQKYLYESRNKNSVA | WASTRES | QQYHRLPLS | 1.03 | 3/3
KSSQLVLYESRNKASVC | WASTRES | QQYHRLPLS | no signal | 0/3
KSSQSVLYSSRNKNSVA | WASTREV | QQYNRLPLS | 2.60 | 3/3
KSSQAVWYESRNKNSVA | WESTRES | QQYHRLPLS | 2.46 | 3/3
KSSQSVLYESTNKNSVA | PAWTRES | QQYHRLPLS | -0.22 | 3/3
SSSQSVLYESRCKNSVA | LASTRES | QQYHRLPLS | no signal | 0/3
MSSQSVLYESRNKNSVA | WCSFRES | QQYHRLPLS | 3.54 | 1/3
KSSQSWLYEWRNKNSVA | WNSTRES | QQYHRLPLS | no signal | 0/3
KSEQSVLYESRNKNSVA | WASTRES | QQYDDLPLS | no signal | 0/3
KSSQSVIYEPRNKHSVA | WASTRES | QQYHRLPLS | 2.27 | 3/3
KSSQSVLYRSRNKNSVA | WASTRES | QCYHRLLLS | 1.19 | 3/3
KSSQLVLYESRNKNSVR | NASTRES | QQYHRLPLS | no signal | 0/3

The opening 4 entries, copied out:

CDR-L1,CDR-L2,CDR-L3,mean log10 Kd (nM),detected
KSSQSVLYEIRNQNSVA,WAWTRES,QQYHRLPLS,no signal,0/3
KSSVSVLYFSRNKSSVA,WASTRES,QQYHRLPLS,3.82,3/3
KSSQSVQYESRNHNSVA,PASTRES,QQYHRLPLS,no signal,0/3
KSSQSVLYESRNKNSVA,WSSTREW,QWYHRLPLS,4.80,3/3

Background: pairings of library AAYL50 with three empty control strains gave a value in 18% of cases (median 4.19, 5th percentile 2.99). Values in that range, when seen in few replicates, are hard to tell from nonspecific mating.

From the AlphaSeq antibody data of Engelhart et al. 2022 (doi:10.1038/s41597-022-01779-4), copy in the FLAb collection.